# According to patent US10456407B2, “Combination therapy for treating cancer” (Epizyme, Inc., priority 2015, dated 2019):
# What was measured:
# WSU-DLCL2 cells = test: RT2 Glucocorticoid signaling PCR array, WSU-DLCL2 (WSU) cell line (Table 4c); type: cell-based
# DOHH2 cells = test: RT2 Glucocorticoid signaling PCR array, DOHH2 cell line (Table 4b); type: cell-based; details: DOHH2, 4 days, vs DMSO
smiles,measurement,setting,value
"C[C@]12C=CC(=O)C=C1CC[C@@H]1[C@@H]2[C@@H](O)C[C@@]2(C)[C@H]1CC[C@]2(O)C(=O)CO [Prednisolone, prednisolone]","Fold Change, ADARB1","WSU-DLCL2 cells; gene ADARB1, compared to DMSO",0.935
same,"Fold Change, AFF1","WSU-DLCL2 cells; gene AFF1, compared to DMSO",1.379
same,"Fold Change, AK2","WSU-DLCL2 cells; gene AK2, compared to DMSO",0.937
same,"Fold Change, AMPD3","WSU-DLCL2 cells; gene AMPD3, compared to DMSO",1.164
same,"Fold Change, ANGPTL4","WSU-DLCL2 cells; gene ANGPTL4, compared to DMSO",1.256
same,"Fold Change, ANXA4","WSU-DLCL2 cells; gene ANXA4, compared to DMSO",1.017
same,"Fold Change, ARID68","WSU-DLCL2 cells; gene ARID68, compared to DMSO",0.582
same,"Fold Change, ASPH","WSU-DLCL2 cells; gene ASPH, compared to DMSO",1.029
same,"Fold Change, ATF4","WSU-DLCL2 cells; gene ATF4, compared to DMSO",0.940
same,"Fold Change, BCL6","WSU-DLCL2 cells; gene BCL6, compared to DMSO",0.841
same,"Fold Change, CEBPA","WSU-DLCL2 cells; gene CEBPA, compared to DMSO",1.227
same,"Fold Change, CEBPB","WSU-DLCL2 cells; gene CEBPB, compared to DMSO",0.569
same,"Fold Change, CREB1","WSU-DLCL2 cells; gene CREB1, compared to DMSO",1.097
same,"Fold Change, CREB3","WSU-DLCL2 cells; gene CREB3, compared to DMSO",1.369
same,"Fold Change, CREB3L4","WSU-DLCL2 cells; gene CREB3L4, compared to DMSO",1.257
same,"Fold Change, CYB561","WSU-DLCL2 cells; gene CYB561, compared to DMSO",12.109
same,"Fold Change, DDIT4","WSU-DLCL2 cells; gene DDIT4, compared to DMSO",3.187
same,"Fold Change, DUSP1","WSU-DLCL2 cells; gene DUSP1, compared to DMSO",0.730
same,"Fold Change, EHD3","WSU-DLCL2 cells; gene EHD3, compared to DMSO",3.127
same,"Fold Change, FK8PS","WSU-DLCL2 cells; gene FK8PS, compared to DMSO",2.373
same,"Fold Change, FOSL2","WSU-DLCL2 cells; gene FOSL2, compared to DMSO",0.139
same,"Fold Change, GDPD1","WSU-DLCL2 cells; gene GDPD1, compared to DMSO",0.889
same,"Fold Change, GHRHR","WSU-DLCL2 cells; gene GHRHR, compared to DMSO",0.091
same,"Fold Change, GOT1","WSU-DLCL2 cells; gene GOT1, compared to DMSO",0.834
same,"Fold Change, H6PD","WSU-DLCL2 cells; gene H6PD, compared to DMSO",0.906
same,"Fold Change, HNRPLL","WSU-DLCL2 cells; gene HNRPLL, compared to DMSO",0.472
same,"Fold Change, IL1RN","WSU-DLCL2 cells; gene IL1RN, compared to DMSO",0.407
same,"Fold Change, KLF9","WSU-DLCL2 cells; gene KLF9, compared to DMSO",1.348
same,"Fold Change, KLF13","WSU-DLCL2 cells; gene KLF13, compared to DMSO",1 358
same,"Fold Change, LOX","WSU-DLCL2 cells; gene LOX, compared to DMSO",0.683
same,"Fold Change, MT2A","WSU-DLCL2 cells; gene MT2A, compared to DMSO",0.929
same,"Fold Change, NFKBIA","WSU-DLCL2 cells; gene NFKBIA, compared to DMSO",0.563
same,"Fold Change, NR3C1","WSU-DLCL2 cells; gene NR3C1, compared to DMSO",0.892
same,"Fold Change, PDCD7","WSU-DLCL2 cells; gene PDCD7, compared to DMSO",1.000
same,"Fold Change, PDP1","WSU-DLCL2 cells; gene PDP1, compared to DMSO",1.078
same,"Fold Change, PER1","WSU-DLCL2 cells; gene PER1, compared to DMSO",0.880
same,"Fold Change, PER2","WSU-DLCL2 cells; gene PER2, compared to DMSO",0.951
same,"Fold Change, PIK3R1","WSU-DLCL2 cells; gene PIK3R1, compared to DMSO",1.000
same,"Fold Change, PLEKHF1","WSU-DLCL2 cells; gene PLEKHF1, compared to DMSO",0.948
same,"Fold Change, POU2F1","WSU-DLCL2 cells; gene POU2F1, compared to DMSO",0.738
same,"Fold Change, POU2F2","WSU-DLCL2 cells; gene POU2F2, compared to DMSO",1.192
same,"Fold Change, RASA3","WSU-DLCL2 cells; gene RASA3, compared to DMSO",1.143
same,"Fold Change, RGS2","WSU-DLCL2 cells; gene RGS2, compared to DMSO",0.388
same,"Fold Change, RHO8","WSU-DLCL2 cells; gene RHO8, compared to DMSO",1.533
same,"Fold Change, SESN1","WSU-DLCL2 cells; gene SESN1, compared to DMSO",5.537
same,"Fold Change, SGK1","WSU-DLCL2 cells; gene SGK1, compared to DMSO",0.244
same,"Fold Change, SLC10A6","WSU-DLCL2 cells; gene SLC10A6, compared to DMSO",0.540
same,"Fold Change, SLC19A2","WSU-DLCL2 cells; gene SLC19A2, compared to DMSO",1.362
same,"Fold Change, SLC22A5","WSU-DLCL2 cells; gene SLC22A5, compared to DMSO",6.562
same,"Fold Change, SNTA1","WSU-DLCL2 cells; gene SNTA1, compared to DMSO",0.873
same,"Fold Change, SPHK1","WSU-DLCL2 cells; gene SPHK1, compared to DMSO",0.724
same,"Fold Change, SPSB1","WSU-DLCL2 cells; gene SPSB1, compared to DMSO",0.635
same,"Fold Change, STAT5A","WSU-DLCL2 cells; gene STAT5A, compared to DMSO",0.739
same,"Fold Change, STAT5B","WSU-DLCL2 cells; gene STAT5B, compared to DMSO",0.894
same,"Fold Change, TBL1XR1","WSU-DLCL2 cells; gene TBL1XR1, compared to DMSO",0.881
same,"Fold Change, TNF","WSU-DLCL2 cells; gene TNF, compared to DMSO",0.590
same,"Fold Change, TNFAIP3","WSU-DLCL2 cells; gene TNFAIP3, compared to DMSO",0.235
same,"Fold Change, TSC22D3","WSU-DLCL2 cells; gene TSC22D3, compared to DMSO",6.625
same,"Fold Change, USP2","WSU-DLCL2 cells; gene USP2, compared to DMSO",2.745
same,"Fold Change, USPS4","WSU-DLCL2 cells; gene USPS4, compared to DMSO",0.865
same,"Fold Change, VDR","WSU-DLCL2 cells; gene VDR, compared to DMSO",1.479
same,"Fold Change, VLDLR","WSU-DLCL2 cells; gene VLDLR, compared to DMSO",0.159
same,"Fold Change, ZFP36","WSU-DLCL2 cells; gene ZFP36, compared to DMSO",0.465
same,"Fold Change, ZHX3","WSU-DLCL2 cells; gene ZHX3, compared to DMSO",0.932
same,"Fold Change, ZNF281","WSU-DLCL2 cells; gene ZNF281, compared to DMSO",1.067
same,ADARB1 Fold Change,DOHH2 cells,0.274
same,AFF1 Fold Change,DOHH2 cells,1.481
same,AK2 Fold Change,DOHH2 cells,0.964
same,AMPD3 Fold Change,DOHH2 cells,0.418
same,ANGPTL4 Fold Change,DOHH2 cells,0.693
same,ANXA4 Fold Change,DOHH2 cells,0.809
same,ARID68 Fold Change,DOHH2 cells,0.914
same,ASPH Fold Change,DOHH2 cells,0.695
same,ATF4 Fold Change,DOHH2 cells,0.822
same,BCL6 Fold Change,DOHH2 cells,0.759
same,BMPER Fold Change,DOHH2 cells,0.362
same,CEBPA Fold Change,DOHH2 cells,5.067
same,CEBPB Fold Change,DOHH2 cells,0.692
same,COL4A2 Fold Change,DOHH2 cells,0.009
same,CREB1 Fold Change,DOHH2 cells,0.943
same,CREB3 Fold Change,DOHH2 cells,0.959
same,CREB3L4 Fold Change,DOHH2 cells,0.792
same,CTGF Fold Change,DOHH2 cells,0.906
same,CYB561 Fold Change,DOHH2 cells,0.265
same,DDIT4 Fold Change,DOHH2 cells,0.815
same,DUSP1 Fold Change,DOHH2 cells,0.765
same,EDN1 Fold Change,DOHH2 cells,0.449
same,EHD3 Fold Change,DOHH2 cells,2.132
same,ERRFI1 Fold Change,DOHH2 cells,0.850
same,FK8PS Fold Change,DOHH2 cells,1.929
same,FOSL2 Fold Change,DOHH2 cells,1.071
same,GDPD1 Fold Change,DOHH2 cells,0.718
same,GHRHR Fold Change,DOHH2 cells,2.759
same,GLUL Fold Change,DOHH2 cells,2.702
same,GOT1 Fold Change,DOHH2 cells,0.853
same,H6PD Fold Change,DOHH2 cells,0.770
same,HNRPLL Fold Change,DOHH2 cells,0.118
same,KLF9 Fold Change,DOHH2 cells,1.013
same,KLF13 Fold Change,DOHH2 cells,1.214
same,LOX Fold Change,DOHH2 cells,0.607
same,MERTK Fold Change,DOHH2 cells,0.986
same,NFKBIA Fold Change,DOHH2 cells,0.957
same,NR3C1 Fold Change,DOHH2 cells,0.803
same,PDCD7 Fold Change,DOHH2 cells,0.986
same,PDP1 Fold Change,DOHH2 cells,1.040
same,PER1 Fold Change,DOHH2 cells,0.799
same,PER2 Fold Change,DOHH2 cells,1.282
same,PIK3R1 Fold Change,DOHH2 cells,1.150
same,PLD1 Fold Change,DOHH2 cells,0.866
same,PLEKHF1 Fold Change,DOHH2 cells,1.272
same,POU2F1 Fold Change,DOHH2 cells,0.760
same,POU2F2 Fold Change,DOHH2 cells,0.904
same,RASA3 Fold Change,DOHH2 cells,0.584
same,RGS2 Fold Change,DOHH2 cells,0.555
same,RHOB Fold Change,DOHH2 cells,0.648
same,SESN1 Fold Change,DOHH2 cells,2.398
same,SGK1 Fold Change,DOHH2 cells,0.230
same,SLC10A6 Fold Change,DOHH2 cells,0.284
same,SLC19A2 Fold Change,DOHH2 cells,1.014
same,SLC22A5 Fold Change,DOHH2 cells,0.638
same,SNTA1 Fold Change,DOHH2 cells,0.631
same,SPHK1 Fold Change,DOHH2 cells,1.496
same,SPSB1 Fold Change,DOHH2 cells,1.053
same,STAT5A Fold Change,DOHH2 cells,2.270
same,STAT5B Fold Change,DOHH2 cells,0.839
same,TBL1XR1 Fold Change,DOHH2 cells,0.978
same,TNF Fold Change,DOHH2 cells,0.593
same,TSC22D3 Fold Change,DOHH2 cells,3.343
same,USP2 Fold Change,DOHH2 cells,1.393
same,USPS4 Fold Change,DOHH2 cells,0.865
same,VDR Fold Change,DOHH2 cells,1.351
same,VLDLR Fold Change,DOHH2 cells,0.343
same,ZFP36 Fold Change,DOHH2 cells,0.856
same,ZHX3 Fold Change,DOHH2 cells,1.577
same,ZNF281 Fold Change,DOHH2 cells,1.081
